Measurements from US6866870B2 (priority 2002, dated 2005).
Where “and” joins values, the source holds several entries; their conditions need not be identical. Equal entries are not always repeated.

Legend:
[1] = test system: biofilms of Leuconostoc mesenteroides
[2] = determined spectrally; alkaline pH; 24° C.; order of addition First/Second

SMILES | Colony Forming Units/cm^2 [1] | Half-life [2]
OO [H2O2, hydrogen peroxide] | 6.7 Colony Forming Units/cm^2 and 6.9 Colony Forming Units/cm^2 and 6.8 Colony Forming Units/cm^2 | 
[Na+].[O-]Cl [NaHClO3, sodium hypochlorite] |  | 221 days
